This note sets out measurements from patent US20210145806A1, “Methods of Treating Brain Cancer and Related Diagnostic Methods” (Emory University, priority 2019, published 2021).

Experiment [1] relates to SHH-activated MB cells (DAOY, UW228 and ONS-76). Description: Soft agar colony formation assay (CFA). To be noted: composite of DAOY, UW228, ONS-76; compared to vehicle control.
Experiment [2] concerns SmoA1 murine SHH-activated MB organotypic slice culture. As to the kind of experiment: Murine MB organotypic slice culture (OSC), cell death by cleaved caspase 3 staining. The following applies: 24 h treatment; compared to control.

For 4-hydroxycyclophosphamide, the “concentration at which colony formation is inhibited” value in experiment [1] is 3 µM. In addition, the “concentration giving significant increase in cell death (CC3 standardized to DAPI)” value in experiment [2] worked out at 2 µM.
